This passage reports remaining activity results from patent US20240425441A9, “MODULATORS OF LIPOXYGENASE AND CYCLOOXYGENASE ENZYME ACTIVITY” (Université de Moncton, priority 2016, published 2024).

Amino acid sequences for entries named in this document (tags omitted). Residues count along the entry.
UniProt P35354, 18-604: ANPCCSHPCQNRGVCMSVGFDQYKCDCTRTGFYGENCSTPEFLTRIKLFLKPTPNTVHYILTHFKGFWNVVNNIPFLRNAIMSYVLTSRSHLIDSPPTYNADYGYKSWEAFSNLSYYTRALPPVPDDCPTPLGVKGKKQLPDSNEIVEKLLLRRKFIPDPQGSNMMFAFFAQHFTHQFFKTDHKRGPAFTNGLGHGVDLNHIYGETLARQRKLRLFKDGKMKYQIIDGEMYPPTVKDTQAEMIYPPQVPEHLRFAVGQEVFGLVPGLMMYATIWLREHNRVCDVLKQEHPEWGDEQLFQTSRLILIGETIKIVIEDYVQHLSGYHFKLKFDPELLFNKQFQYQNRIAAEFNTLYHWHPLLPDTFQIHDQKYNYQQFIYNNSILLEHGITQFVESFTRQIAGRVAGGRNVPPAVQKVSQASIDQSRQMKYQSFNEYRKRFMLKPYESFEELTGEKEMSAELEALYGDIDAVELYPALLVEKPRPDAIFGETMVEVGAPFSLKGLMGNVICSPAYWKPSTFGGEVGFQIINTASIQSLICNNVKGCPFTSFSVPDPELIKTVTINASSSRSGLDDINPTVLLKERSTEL

For the assay, the target named is COX-2 (Homo sapiens (Human), UniProt P35354). As to the kind of experiment: COX-2 activity, products from LPS-primed human neutrophils. The format is cell-based. Conditions: 100% no inhibition, 0% complete inhibition, read-out: Avg % of control.

Take `O=C(/C=C/c1ccc(O)c(O)c1)OCCc1ccccc1` [CAPE, caffeic acid phenethyl ester, reference compound]: the remaining activity at 1 µM turned out to be 52.4%.
